The values below come from PMC9168620, “Genetic validation of Aspergillus fumigatus phosphoglucomutase as a viable therapeutic target in invasive aspergillosis” (The Journal of Biological Chemistry, 2022).

Chains of the proteins cited; added tags and fusions are not shown.
UniProt P36871, whole entry: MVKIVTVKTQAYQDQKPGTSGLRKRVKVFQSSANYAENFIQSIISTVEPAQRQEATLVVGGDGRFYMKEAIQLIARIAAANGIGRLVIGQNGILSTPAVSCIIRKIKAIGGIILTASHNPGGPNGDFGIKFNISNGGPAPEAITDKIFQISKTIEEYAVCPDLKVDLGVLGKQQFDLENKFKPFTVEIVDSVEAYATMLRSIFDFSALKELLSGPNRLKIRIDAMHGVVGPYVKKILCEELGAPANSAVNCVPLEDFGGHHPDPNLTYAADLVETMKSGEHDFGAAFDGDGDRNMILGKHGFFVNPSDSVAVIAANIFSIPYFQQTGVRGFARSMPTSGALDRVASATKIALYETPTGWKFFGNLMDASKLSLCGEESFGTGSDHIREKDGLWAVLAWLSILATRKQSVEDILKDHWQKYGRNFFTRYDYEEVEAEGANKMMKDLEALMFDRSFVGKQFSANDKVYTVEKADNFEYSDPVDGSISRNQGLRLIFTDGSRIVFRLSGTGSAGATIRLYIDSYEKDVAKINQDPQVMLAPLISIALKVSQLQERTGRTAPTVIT

Structures are written as SMILES. A value given as a limit tells only on which side of the number the result lay.

In the assay the target is HsPGM (Homo sapiens, UniProt P36871). Nature of the assay: G6PDH coupled assay for PGM, HsPGM. The class given is biochemical. The settings on record: read-out: IC50 HsPGM; HsPGM 5 nM, no preincubation; > values: highest concentration at which the compound can solubilize.
As for `O=c1ccsn1-c1ccccc1`, the IC50 (in general, the concentration that gives 50% inhibition) is more than 400 µM. With `CCOC(=O)c1ccc(-n2sccc2=O)cc1` the figure was more than 100 µM; with `O=c1ccsn1-c1cccc(C(F)(F)F)c1`, more than 100 µM; with `COC(=O)c1ccc(-n2sccc2=O)cc1`, more than 100 µM. `O=c1ccsn1-c1ccc(F)c(Cl)c1`: the IC50 is more than 100 µM.
